pIC50: −log10 of the molar value. Where only a bound is given, the exact number is not on record here.

Amino acid sequences for entries named in this document (tags omitted). A change or cut given only in a name is not applied to a line headed by its entry.
UniProt P52500: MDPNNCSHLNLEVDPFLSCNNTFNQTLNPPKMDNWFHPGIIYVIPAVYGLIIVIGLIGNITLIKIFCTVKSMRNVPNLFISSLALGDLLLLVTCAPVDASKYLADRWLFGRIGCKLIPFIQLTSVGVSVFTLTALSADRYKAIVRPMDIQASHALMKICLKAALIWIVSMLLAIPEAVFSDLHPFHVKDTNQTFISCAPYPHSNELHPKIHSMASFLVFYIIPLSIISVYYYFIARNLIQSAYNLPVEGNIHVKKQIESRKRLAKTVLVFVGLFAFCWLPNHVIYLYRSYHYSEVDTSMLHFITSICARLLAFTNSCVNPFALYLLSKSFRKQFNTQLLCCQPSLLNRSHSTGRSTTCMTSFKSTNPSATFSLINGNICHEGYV

For orientation: pIC50 means the negative decadic logarithm of the IC50, by convention in mol/L.

The assay deals with GRP receptor (Rattus norvegicus, UniProt P52500). Description: Amylase release from rat pancreatic acini (alone or Bn-stimulated). Type of assay: cell-based. Further details: from tissue; host or cells: dispersed pancreatic acini. The procedure: pancreatic acini or [^3 H]myo[2H]inositolloaded NMBR transfected cell
were incubated either with no additives, the somatostatin octapeptide
analog, Bn, or NMB, or a combination for 30 min at 37° C.. Amylase
release from pancreatic acini was expressed at the indicated percent of
the total cellular amylase released during the incubation. [^3 H]IP i
expressed in dpm's. To test for inhibitory effects, the effect of
somatostatin analog (10 μM) was determined on 0.3 nM Bnstimulated

Take `CC(C)[C@@H]1NC(=O)[C@H](CCCCN)NC(=O)[C@@H](Cc2c[nH]c3ccccc23)NC(=O)[C@H](Cc2ccc3ccccc3c2)NC(=O)[C@@H](NC(=O)[C@H](N)Cc2ccccc2)CSSC[C@@H](C(=O)N[C@H](C(N)=O)[C@@H](C)O)NC1=O` [Analog #18]: the “Amylase Release, analog Alone (10 μM)” value (analog 10 μM alone, control 4 ± 1) is recorded as 3 ± 1 % total. The “Amylase Release, analog Plus Bn (0.3 nM)” value (analog 10 μM plus Bn 0.3 nM, Bn without analog 15 ± 1) worked out at 14 ± 1 % total. The pIC50 (read-out: IC50 Amylase Release, GRP Receptor, Rat Pancreatic Acini) is less than 5.00.

(Values after US5462926A (Biomeasure, Inc., priority 1993, dated 1995).)
